How the values were obtained:
[1] = target: T1, Alpha-1A adrenergic receptor (Homo sapiens, UniProt P35348)
T1 sequence (P35348 whole entry): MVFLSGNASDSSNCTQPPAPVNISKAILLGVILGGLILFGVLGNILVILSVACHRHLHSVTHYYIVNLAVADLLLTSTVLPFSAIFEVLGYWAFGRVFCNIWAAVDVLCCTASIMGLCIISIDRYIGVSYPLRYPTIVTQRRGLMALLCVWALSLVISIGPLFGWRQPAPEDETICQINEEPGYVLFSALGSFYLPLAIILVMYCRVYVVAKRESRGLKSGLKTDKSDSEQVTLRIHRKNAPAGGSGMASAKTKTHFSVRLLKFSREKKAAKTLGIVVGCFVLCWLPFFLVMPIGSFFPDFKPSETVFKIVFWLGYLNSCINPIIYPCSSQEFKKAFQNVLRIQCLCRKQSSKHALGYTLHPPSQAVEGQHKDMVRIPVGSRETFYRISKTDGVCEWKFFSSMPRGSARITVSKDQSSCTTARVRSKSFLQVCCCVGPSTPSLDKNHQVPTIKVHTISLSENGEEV

Protein sequences, listed by entry. Tags and fused reporters are not part of them. Lines headed by an entry give the natural chain unless they say otherwise; changes in a name come on top.
UniProt P22303: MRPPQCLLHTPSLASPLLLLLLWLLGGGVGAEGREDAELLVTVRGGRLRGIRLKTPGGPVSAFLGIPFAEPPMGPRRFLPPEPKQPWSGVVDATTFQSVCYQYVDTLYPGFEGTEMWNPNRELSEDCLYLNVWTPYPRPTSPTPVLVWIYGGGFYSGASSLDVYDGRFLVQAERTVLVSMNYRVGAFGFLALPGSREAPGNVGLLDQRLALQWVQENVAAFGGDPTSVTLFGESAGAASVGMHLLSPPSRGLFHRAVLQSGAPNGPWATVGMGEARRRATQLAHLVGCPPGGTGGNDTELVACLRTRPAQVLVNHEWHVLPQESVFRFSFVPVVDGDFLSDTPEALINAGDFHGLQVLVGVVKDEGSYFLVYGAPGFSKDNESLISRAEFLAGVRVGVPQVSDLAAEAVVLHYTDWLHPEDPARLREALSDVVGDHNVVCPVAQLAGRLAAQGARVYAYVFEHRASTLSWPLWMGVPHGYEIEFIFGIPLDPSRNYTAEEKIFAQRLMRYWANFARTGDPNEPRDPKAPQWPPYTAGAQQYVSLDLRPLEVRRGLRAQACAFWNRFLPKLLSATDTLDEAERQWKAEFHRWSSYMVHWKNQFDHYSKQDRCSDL
UniProt Q12809: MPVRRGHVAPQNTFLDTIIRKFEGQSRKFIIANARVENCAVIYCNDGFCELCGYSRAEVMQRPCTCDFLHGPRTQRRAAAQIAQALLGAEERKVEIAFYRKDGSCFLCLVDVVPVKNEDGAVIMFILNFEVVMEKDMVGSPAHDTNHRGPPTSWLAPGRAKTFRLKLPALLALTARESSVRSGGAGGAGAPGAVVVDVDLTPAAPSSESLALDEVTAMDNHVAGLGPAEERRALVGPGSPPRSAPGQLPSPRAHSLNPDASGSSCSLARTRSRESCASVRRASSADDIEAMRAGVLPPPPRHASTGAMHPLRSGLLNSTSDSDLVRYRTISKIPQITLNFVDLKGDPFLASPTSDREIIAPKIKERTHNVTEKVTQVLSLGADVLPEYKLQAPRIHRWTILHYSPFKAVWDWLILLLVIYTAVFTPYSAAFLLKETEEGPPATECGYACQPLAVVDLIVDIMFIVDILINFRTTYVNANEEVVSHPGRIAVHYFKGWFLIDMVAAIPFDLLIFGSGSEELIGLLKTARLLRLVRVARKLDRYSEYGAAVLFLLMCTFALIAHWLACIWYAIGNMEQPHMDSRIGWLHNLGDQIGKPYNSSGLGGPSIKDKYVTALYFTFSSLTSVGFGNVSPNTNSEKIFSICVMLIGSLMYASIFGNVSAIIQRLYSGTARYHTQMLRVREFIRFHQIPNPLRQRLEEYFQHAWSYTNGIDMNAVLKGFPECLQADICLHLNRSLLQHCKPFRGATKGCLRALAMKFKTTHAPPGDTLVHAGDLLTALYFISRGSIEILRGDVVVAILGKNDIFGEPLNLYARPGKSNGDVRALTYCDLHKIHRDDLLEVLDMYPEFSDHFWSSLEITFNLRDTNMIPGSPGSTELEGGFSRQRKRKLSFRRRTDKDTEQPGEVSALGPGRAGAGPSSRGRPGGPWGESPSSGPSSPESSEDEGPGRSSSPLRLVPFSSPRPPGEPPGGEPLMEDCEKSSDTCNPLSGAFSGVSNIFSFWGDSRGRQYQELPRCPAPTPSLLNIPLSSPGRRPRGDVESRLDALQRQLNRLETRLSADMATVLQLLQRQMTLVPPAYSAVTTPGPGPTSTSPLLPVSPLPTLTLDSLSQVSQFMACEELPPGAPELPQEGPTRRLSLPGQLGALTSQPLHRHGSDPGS
UniProt Q13936, whole entry: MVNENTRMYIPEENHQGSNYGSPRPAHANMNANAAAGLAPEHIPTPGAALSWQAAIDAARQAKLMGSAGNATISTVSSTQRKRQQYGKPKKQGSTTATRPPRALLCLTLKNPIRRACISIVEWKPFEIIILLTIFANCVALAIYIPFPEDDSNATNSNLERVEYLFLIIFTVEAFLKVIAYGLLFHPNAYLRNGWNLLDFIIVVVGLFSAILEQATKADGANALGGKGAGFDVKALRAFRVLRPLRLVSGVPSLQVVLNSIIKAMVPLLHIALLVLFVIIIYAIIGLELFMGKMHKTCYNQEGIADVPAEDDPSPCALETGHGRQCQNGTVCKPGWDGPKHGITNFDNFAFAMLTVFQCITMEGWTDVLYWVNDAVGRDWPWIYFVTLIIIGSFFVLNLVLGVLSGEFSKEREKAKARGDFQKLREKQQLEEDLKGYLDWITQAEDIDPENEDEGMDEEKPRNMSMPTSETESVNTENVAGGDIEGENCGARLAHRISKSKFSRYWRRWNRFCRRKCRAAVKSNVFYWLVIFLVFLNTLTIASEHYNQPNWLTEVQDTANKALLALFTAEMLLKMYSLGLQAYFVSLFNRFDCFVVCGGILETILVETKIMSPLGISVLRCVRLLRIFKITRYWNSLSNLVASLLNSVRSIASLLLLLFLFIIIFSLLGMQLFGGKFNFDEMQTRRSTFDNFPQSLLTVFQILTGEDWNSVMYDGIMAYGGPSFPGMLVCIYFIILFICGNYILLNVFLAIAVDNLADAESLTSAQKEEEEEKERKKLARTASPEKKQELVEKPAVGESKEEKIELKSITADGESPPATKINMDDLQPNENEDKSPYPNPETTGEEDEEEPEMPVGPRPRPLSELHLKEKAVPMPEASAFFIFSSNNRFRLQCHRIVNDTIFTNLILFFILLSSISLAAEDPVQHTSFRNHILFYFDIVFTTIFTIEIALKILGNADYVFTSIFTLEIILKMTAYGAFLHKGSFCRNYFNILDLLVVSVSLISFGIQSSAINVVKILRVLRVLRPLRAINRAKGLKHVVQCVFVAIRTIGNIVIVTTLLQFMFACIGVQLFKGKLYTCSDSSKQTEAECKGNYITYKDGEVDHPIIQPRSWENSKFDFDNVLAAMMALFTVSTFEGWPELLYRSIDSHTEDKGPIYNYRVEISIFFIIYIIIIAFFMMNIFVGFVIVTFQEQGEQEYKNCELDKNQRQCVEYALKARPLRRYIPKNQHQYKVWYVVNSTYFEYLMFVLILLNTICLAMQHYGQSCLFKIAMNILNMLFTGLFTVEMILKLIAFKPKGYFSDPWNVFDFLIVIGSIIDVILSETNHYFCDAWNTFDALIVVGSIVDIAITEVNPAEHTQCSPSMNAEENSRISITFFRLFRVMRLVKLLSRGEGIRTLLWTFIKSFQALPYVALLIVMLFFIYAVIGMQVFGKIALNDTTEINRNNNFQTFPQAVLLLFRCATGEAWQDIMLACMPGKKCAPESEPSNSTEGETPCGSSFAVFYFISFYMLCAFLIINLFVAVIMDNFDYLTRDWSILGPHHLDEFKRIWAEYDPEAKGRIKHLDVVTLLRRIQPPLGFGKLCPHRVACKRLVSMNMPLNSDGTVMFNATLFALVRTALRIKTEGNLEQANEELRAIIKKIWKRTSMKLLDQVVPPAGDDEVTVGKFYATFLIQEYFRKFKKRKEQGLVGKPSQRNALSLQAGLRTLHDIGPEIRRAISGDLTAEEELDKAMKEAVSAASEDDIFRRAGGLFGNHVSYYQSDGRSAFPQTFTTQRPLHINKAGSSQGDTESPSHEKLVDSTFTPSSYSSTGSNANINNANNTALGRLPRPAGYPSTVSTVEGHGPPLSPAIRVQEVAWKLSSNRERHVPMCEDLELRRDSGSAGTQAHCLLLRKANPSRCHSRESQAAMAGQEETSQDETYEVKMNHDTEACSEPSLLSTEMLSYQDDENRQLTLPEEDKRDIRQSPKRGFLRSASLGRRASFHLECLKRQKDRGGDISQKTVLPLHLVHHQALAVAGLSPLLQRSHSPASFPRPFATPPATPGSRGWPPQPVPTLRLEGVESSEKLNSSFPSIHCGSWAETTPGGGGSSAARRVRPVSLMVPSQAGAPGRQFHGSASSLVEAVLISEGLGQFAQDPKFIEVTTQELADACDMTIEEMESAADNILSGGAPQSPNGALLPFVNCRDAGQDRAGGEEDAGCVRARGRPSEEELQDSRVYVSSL
UniProt P23975, whole entry: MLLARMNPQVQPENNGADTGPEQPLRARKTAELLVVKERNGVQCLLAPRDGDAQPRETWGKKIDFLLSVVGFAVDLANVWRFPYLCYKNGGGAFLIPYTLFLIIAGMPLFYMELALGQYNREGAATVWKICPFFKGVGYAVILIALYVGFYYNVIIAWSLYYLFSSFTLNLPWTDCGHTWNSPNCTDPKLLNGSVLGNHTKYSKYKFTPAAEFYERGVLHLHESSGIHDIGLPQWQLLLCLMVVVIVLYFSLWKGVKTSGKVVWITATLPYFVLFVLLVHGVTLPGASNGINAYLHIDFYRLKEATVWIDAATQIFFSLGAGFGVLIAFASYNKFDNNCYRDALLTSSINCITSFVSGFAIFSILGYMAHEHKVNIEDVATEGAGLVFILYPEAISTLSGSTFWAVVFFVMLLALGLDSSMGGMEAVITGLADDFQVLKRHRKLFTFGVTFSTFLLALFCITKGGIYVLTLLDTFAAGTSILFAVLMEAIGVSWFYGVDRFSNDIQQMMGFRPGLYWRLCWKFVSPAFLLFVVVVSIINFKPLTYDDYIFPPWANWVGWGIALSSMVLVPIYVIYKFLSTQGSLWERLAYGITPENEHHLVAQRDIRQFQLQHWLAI
UniProt P41145: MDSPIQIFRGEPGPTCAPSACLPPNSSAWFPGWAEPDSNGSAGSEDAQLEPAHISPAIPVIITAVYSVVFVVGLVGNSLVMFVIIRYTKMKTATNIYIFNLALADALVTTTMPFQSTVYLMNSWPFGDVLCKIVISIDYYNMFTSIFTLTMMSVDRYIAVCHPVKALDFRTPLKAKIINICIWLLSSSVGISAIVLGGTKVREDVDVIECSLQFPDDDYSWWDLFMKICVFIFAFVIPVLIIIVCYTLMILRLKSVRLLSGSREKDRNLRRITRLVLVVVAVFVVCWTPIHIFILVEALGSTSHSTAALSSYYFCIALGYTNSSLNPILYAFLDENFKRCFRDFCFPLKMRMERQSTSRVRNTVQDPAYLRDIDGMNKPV

Acetylcholinesterase [2] = target: T2, Acetylcholinesterase (Homo sapiens, UniProt P22303); assay type: functional
Acetylcholinesterase [3] = target: T2, Acetylcholinesterase; assay type: functional; remark: listed apart in the source
[4] = target: Voltage-gated inwardly rectifying potassium channel KCNH2 (Homo sapiens, UniProt Q12809)
[5] = target: Voltage-dependent L-type calcium channel subunit alpha-1C (Homo sapiens, UniProt Q13936); assay type: functional, cell-based
[6] = target: Sodium-dependent noradrenaline transporter (Homo sapiens, UniProt P23975)
[7] = target: Kappa-type opioid receptor (Homo sapiens, UniProt P41145)
Also: assay procedure not described here.

SMILES: CN(C)CCOC1=Cc2ccccc2Sc2ccc(Cl)cc21 [ZOTEPINE]
- AC50 [1]: 3 nM

SMILES: CC[C@H]1OC(=O)[C@H](C)[C@@H](O[C@H]2C[C@@](C)(OC)[C@@H](O)[C@H](C)O2)[C@H](C)[C@@H](O[C@@H]2O[C@H](C)C[C@H](N(C)C)[C@H]2O)[C@](C)(O)C[C@@H](C)C(=O)[C@H](C)[C@@H](O)[C@]1(C)O [ERYTHROMYCIN]
- AC50 (Acetylcholinesterase [2]): > 30000 nM
- AC50 (Acetylcholinesterase [3]): > 30000 nM

SMILES: CC(C)COCC(CN(Cc1ccccc1)c1ccccc1)N1CCCC1 (stereo not drawn) [BEPRIDIL]
- AC50 [4]: 251 nM
- AC50 [5]: > 50000 nM

SMILES: CC(NC(C)(C)C)C(=O)c1cccc(Cl)c1 (stereo not drawn) [BUPROPION]
- AC50 [6]: > 10000 nM

SMILES: COc1ccc2c3c1O[C@H]1C(=O)CC[C@H]4[C@@H](C2)N(C)CC[C@]314 [HYDROCODONE]
- AC50 [7]: 766 nM

SMILES: CN1CCCCC1CCN1c2ccccc2Sc2ccc([S+](C)[O-])cc21 (stereo not drawn) [MESORIDAZINE]
- AC50 [4]: 3600 nM
